In paper PMC11140586:

Target: apolipoprotein E (human (endogenous in CSF and plasma)) (UniProt P02649)
Test: co-IP + ELISA; immunodepletion of ApoE-positive vesicles from 200 uL human CSF (anti-ApoE antibody overnight at 4 C, protein A/G agarose 6 h at RT); aSN in the sample measured by ELISA before and after depletion; PD patients and controls

Q: How did the percent of aSN bound to lipoproteins (removed with ApoE-positive vesicles), PD samples turn out when “α-synuclein (from UniProt P37840 1-140) (natural protein)” was run?
A: 48%

Q: What about the percent of aSN bound to lipoproteins (removed with ApoE-positive vesicles), controls of the same substance?
A: 44%
